Reference: publication PMC5423295, “Positive Modulatory Interactions of NMDA Receptor GluN1/2B Ligand Binding Domains Attenuate Antagonists Activity” (Frontiers in Pharmacology, 2017)

Sequences of proteins named here, by UniProt entry; tags and fusion partners are left off. A change or cut given only in a name is not applied to a line headed by its entry. Residues count along the entry.
UniProt Q00960, 27-1482: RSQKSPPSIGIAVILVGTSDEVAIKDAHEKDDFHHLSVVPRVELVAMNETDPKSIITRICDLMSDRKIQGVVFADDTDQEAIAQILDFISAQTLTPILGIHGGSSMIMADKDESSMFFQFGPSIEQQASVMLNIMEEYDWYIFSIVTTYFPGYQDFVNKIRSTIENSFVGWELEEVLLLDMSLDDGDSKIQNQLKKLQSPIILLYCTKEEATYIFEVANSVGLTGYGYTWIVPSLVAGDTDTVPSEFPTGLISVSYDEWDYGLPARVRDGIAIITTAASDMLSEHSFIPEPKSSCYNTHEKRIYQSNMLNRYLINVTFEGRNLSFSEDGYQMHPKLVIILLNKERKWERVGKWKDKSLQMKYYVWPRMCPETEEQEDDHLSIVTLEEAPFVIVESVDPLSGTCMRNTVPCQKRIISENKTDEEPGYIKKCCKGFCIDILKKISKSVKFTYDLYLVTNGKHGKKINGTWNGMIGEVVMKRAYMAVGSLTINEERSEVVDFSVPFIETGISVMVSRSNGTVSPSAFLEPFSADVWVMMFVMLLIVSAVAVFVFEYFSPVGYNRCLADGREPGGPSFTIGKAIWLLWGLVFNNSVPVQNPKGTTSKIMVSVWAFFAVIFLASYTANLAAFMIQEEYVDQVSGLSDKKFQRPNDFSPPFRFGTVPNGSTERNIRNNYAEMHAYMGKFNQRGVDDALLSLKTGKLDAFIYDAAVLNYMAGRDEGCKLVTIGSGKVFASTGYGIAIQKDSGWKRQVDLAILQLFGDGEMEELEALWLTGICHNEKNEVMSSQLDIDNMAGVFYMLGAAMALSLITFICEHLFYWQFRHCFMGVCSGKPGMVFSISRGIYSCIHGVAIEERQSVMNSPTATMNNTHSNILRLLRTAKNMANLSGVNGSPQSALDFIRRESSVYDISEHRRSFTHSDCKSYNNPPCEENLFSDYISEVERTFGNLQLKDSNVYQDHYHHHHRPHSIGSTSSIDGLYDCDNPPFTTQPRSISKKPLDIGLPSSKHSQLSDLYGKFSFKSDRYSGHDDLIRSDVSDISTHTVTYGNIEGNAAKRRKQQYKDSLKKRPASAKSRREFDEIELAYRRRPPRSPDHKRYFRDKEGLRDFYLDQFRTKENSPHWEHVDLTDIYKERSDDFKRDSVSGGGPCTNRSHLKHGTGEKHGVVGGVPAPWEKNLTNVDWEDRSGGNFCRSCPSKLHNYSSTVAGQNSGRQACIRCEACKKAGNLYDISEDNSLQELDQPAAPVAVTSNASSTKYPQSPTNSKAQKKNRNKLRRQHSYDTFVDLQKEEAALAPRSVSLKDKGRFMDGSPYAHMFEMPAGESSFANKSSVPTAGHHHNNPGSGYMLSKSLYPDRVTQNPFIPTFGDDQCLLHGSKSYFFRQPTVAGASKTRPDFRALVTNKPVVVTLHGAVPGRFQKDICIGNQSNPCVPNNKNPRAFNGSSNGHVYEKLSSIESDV

Tests used:
Experiment in all cases: two-electrode voltage clamp, Xenopus oocytes
Assay type in all cases: cell-based
Details in all cases: read-out: EC50 or IC50
[1] = target: T1, GluN1/2B NMDA receptor (GluN1a + GluN2B) (Rattus norvegicus, UniProt P35439+Q00960)
T1 construct: gene Grin1; cRNAs 1:1-3 in Xenopus oocytes; heterotetramer
Description: (§1) two-electrode voltage clamp, Xenopus oocytes on GluN1/2B NMDA receptor (GluN1a + GluN2B)

[2] = target: T2, GluN1/2B NMDA receptor (GluN1a + GluN2B) (Rattus norvegicus, UniProt P35439+Q00960, P35439:K531A)
T2 construct: gene Grin1; cRNAs 1:1-3 in Xenopus oocytes; heterotetramer
Description: as §1

[3] = target: T3, GluN1/2B NMDA receptor (GluN1a + GluN2B) (Rattus norvegicus, UniProt P35439+Q00960, P35439:N521A)
T3 construct: gene Grin1; cRNAs 1:1-3 in Xenopus oocytes; heterotetramer
Description: as §1

[4] = target: T4, GluN1/2B NMDA receptor (GluN1a + GluN2B) (Rattus norvegicus, UniProt P35439+Q00960, P35439:N521D)
T4 construct: gene Grin1; cRNAs 1:1-3 in Xenopus oocytes; heterotetramer
Description: as §1

CC12CC3CC(C)(C1)CC(N)(C3)C2 [Memantine]
IC50 [1]: 1.43 ± 0.11 µM
IC50 [2]: 0.6 ± 0.07 µM
IC50 [3]: 0.64 ± 0.04 µM
IC50 [4]: 0.84 ± 0.1 µM
